Sequences of proteins named here, by UniProt entry; tags and fusion partners are left off. A change or cut given only in a name is not applied to a line headed by its entry. Residues count along the entry.
UniProt P14842, whole entry: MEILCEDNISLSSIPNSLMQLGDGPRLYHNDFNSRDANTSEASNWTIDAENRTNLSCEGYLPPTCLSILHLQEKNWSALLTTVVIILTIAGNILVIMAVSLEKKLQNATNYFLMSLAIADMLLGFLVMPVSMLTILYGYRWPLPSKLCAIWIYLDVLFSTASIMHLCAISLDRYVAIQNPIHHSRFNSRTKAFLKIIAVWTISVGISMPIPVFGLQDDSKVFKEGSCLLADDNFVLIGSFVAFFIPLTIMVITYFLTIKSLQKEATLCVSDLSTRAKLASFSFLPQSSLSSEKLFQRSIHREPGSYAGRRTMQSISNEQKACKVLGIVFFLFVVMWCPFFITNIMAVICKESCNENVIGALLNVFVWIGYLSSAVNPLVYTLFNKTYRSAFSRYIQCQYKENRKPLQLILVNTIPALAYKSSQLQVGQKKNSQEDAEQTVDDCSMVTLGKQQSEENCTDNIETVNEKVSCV
UniProt K7GSR7, 1-457: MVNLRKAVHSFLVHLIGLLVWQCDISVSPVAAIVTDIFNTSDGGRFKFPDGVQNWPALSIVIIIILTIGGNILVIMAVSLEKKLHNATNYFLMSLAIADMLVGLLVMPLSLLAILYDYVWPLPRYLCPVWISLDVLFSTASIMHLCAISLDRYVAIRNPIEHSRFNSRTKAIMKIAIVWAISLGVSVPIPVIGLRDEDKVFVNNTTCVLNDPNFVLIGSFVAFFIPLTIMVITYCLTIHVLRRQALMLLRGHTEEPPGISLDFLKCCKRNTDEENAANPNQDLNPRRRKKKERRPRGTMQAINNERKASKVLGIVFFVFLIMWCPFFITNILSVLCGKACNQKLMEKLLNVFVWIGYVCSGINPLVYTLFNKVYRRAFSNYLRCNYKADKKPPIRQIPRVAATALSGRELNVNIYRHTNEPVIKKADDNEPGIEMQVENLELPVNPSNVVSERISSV
UniProt P14416, whole entry: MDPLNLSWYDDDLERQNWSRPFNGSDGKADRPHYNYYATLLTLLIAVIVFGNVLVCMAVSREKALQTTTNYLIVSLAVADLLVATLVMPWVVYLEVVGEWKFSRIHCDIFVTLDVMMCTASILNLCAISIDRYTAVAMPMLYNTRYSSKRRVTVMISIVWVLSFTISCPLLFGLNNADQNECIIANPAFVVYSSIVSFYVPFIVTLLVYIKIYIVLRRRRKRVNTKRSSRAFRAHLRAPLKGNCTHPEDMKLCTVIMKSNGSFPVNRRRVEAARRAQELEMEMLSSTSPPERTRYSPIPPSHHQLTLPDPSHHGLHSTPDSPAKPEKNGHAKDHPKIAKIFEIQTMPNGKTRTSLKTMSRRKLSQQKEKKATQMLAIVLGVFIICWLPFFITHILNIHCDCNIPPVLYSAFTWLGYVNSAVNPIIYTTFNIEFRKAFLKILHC
UniProt Q63380, 1-617: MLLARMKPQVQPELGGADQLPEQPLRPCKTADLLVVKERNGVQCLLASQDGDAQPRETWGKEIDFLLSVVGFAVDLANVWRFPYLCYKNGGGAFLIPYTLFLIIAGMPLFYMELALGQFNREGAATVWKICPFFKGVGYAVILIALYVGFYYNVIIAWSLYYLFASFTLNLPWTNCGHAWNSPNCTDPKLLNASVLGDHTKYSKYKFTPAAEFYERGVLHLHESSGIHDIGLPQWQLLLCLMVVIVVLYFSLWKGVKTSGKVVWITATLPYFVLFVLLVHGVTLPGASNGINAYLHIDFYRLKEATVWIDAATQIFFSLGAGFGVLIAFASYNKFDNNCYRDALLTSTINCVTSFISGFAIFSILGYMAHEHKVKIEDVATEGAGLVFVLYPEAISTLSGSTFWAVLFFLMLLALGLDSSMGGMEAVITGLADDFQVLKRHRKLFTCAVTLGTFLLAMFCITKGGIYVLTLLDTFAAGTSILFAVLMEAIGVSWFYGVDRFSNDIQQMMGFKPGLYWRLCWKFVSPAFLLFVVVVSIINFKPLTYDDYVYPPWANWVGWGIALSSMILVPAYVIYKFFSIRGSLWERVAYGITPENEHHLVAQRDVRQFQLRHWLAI

In patent US8404729B2, “Heterocyclic tetracyclic tetrahydrofuran derivatives” (Janssen Pharmaceutica, NV, priority 2005, dated 2013):

Columns and labels:
[1] = target: 5-HT2A receptors (Rattus norvegicus, UniProt P14842); experiment: In vitro binding affinity for 5-HT2A receptor (3H-ketanserin radioligand binding); conditions: frontal cortex of the rat
[2] = target: 5-HT2C receptors (Sus scrofa, UniProt K7GSR7); experiment: In vitro binding affinity for 5-HT2C receptor (3H-mesulergine radioligand binding); conditions: choroid plexus of the pig
Procedure: The interaction of the compounds of Formula (I) with 5-HT2A and 5-HT2C receptors was assessed in in vitro radioligand binding experiments. In general, a low concentration of a radioligand with a high binding affinity for the receptor is incubated with a sample of a tissue preparation enriched in a particular receptor (1 to 5 mg tissue) in a buffered medium (0.2 to 5 ml). During the incubation, the radioligands bind to the receptor. When equilibrium of binding is reached, the receptor bound radioactivity is separated from the non-bound radioactivity, and the receptor bound activity is counted. The interaction of the test compounds with the receptors is assessed in competition binding experiments. Various concentrations of the test compound are added to the incubation mixture containing the tissue preparation and the radioligand. Binding of the radioligand will be inhibited by the test compound in proportion to its binding affinity and its concentration. The radioligand used for 5-HT2A binding affinity is ^3H-ketanserin and the tissue used is the frontal cortex of the rat. The radioligand used for 5-HT2c binding affinity is ^3H-mesulergine and the tissue used is the choroid plexus of the pig.

[3] = target: human Dopamine D2L receptor (Homo sapiens, UniProt P14416); experiment: In vitro binding affinity for human D2L receptor ([3H]Spiperone); conditions: membranes of human D2L receptor-transfected CHO cells
Procedure: Frozen membranes of human Dopamine D2L receptor-transfected CHO cells were thawed, briefly homogenised using an Ultra-Turrax T25 homogeniser and diluted in Tris-HCl assay buffer containing NaCl, CaCl2, MgCl2, KCl (50, 120, 2, 1, and 5 mM respectively, adjusted to pH 7.7 with HCl) to an appropriate protein concentration optimised for specific and non-specific binding. Radioligand [^3H]Spiperone (NEN, specific activity ˜70 Ci/mmol) was diluted in assay buffer at a concentration of 2 nmol/L. Prepared radioligand (50 μl), along with 50 μl of either the 10% DMSO control, Butaclamol (10^−6 mol/l final concentration), or compound of interest, was then incubated (30 min, 37° C.) with 400 μl of the prepared membrane solution. Membrane-bound activity was filtered through a Packard Filtermate harvester onto GF/B Unifilterplates and washed with ice-cold Tris-HCl buffer (50 mM; pH 7.7; 6×0.5 ml). Filters were allowed to dry before adding scintillation fluid and counting in a Topcount scintillation counter. Percentage specific bound and competition binding curves were calculated using S-Plus software (Insightful).

[4] = target: NET (Rattus norvegicus, UniProt Q63380); experiment: In vitro determination of NET reuptake inhibition ([3H]Nixosetine binding); conditions: rat brain cortex membranes

5-HT2A (pIC50) ([1]; tested form: oxalate (1:1)) | 5-HT2C (pIC50) ([2]; tested form: oxalate (1:1)) | D2 (pIC50) ([3]; tested form: oxalate (1:1)) | NET-inhibition (pIC50) ([4]; tested form: oxalate (1:1)) | 5-HT2A (pIC50) ([1]; tested form: oxalate) | 5-HT2C (pIC50) ([2]; tested form: oxalate) | D2 (pIC50) ([3]; tested form: oxalate) | NET-inhibition (pIC50) ([4]; tested form: oxalate) | SMILES
7.1 | 6.6 | <6 | 6.3 | – | – | – | – | CN(C)C[C@H]1C[C@@H]2c3ccccc3Sc3sccc3[C@@H]2O1 (relative stereo)
– | – | – | – | 7.0 | 7.6 | 5.9 | 7.5 | CN(C)C[C@H]1C[C@@H]2c3ccccc3Sc3sccc3[C@H]2O1 (relative stereo)
